Common to all, as to assay type: functional
In test [1] the test system is Hep 3B2. The test can be described thus: Cell cycle arrest in human Hep3B cells assessed as accumulation at G0/G1 phase at 2.5 uM after 24 hrs by propidium iodide staining based flow cytometry (reference value: 36.3 to 39.0%).
In test [2] the test system is Hep 3B2. Kind of test: Cell cycle arrest in human Hep3B cells assessed as accumulation at sub-G1 phase at 20 uM after 24 hrs by propidium iodide staining based flow cytometry (reference value: 1.9 to 3.6%). On the technique in general: Flow cytometry measures light scatter and fluorescence of single cells or particles in a stream.
Test [3] relates to Hep 3B2. The test can be described thus: Cell cycle arrest in human Hep3B cells assessed as accumulation at G0/G1 phase at 5 uM after 48 hrs by propidium iodide staining based flow cytometry (reference value: 39.7 to 40.4%).
Test [4] relates to Hep 3B2. Kind of test: Cell cycle arrest in human Hep3B cells assessed as accumulation at G0/G1 phase at 5 uM after 24 hrs by propidium iodide staining based flow cytometry (reference value: 36.3 to 39.0%).

The structures appear in SMILES notation.

Consider `CNC(=O)c1cc(Oc2ccc(NC(=O)Nc3ccc(Cl)c(C(F)(F)F)c3)cc2)ccn1` [SORAFENIB], for which the Activity in test [1] was determined as 38.1%; in test [2] it was 16.6%; in test [3] it was 42.3%; in test [4], 38.1%.

The record behind these values is ChEMBL document CHEMBL4024707, “Using gene expression database to uncover biology functions of 1,4-disubstituted 1,2,3-triazole analogues synthesized via a copper (I)-catalyzed reaction” (Eur J Med Chem, 2017).
